Reference: patent US9974839B2, “Self-assembled toroidal-spiral particles and manufacture and uses thereof” (THE BOARD OF TRUSTEES OF THE UNIVERSITY OF ILLINOIS, priority 2009, dated 2018)

Settings: BSA in bulk phase of 61 wt % glycerol, 35 wt % ethanol, 3.6 wt % DI water, 0.4 wt % BSA

bovine serum albumin [BSA]
conformation of BSA by circular dichroism (CD): confirmed
